Source: patent publication US20250215029A1 (Recludix Pharma, Inc., priority 2022, published 2025)
Where two headings read alike, the source gives them in different places.

Protein sequences, listed by entry. Tags and fused reporters are not part of them. Residues count along the entry.
UniProt P40763, 127-722 limits assumed: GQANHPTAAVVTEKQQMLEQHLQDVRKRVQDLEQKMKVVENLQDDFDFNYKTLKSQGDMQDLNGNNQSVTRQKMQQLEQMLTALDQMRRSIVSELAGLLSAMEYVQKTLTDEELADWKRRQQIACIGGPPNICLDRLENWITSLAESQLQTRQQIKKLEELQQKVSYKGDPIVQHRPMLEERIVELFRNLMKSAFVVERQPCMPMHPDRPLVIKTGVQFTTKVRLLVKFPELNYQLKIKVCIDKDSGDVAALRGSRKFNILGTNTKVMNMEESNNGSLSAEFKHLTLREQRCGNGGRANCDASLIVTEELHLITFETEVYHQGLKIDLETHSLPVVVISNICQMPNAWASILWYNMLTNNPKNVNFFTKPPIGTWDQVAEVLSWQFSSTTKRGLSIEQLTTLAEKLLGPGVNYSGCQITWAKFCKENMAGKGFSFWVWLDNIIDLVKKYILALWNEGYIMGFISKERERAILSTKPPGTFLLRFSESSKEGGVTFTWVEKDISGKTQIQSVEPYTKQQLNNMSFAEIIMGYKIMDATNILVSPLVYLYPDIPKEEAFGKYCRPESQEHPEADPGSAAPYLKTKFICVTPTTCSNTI
UniProt P42226, 123-658 limits assumed: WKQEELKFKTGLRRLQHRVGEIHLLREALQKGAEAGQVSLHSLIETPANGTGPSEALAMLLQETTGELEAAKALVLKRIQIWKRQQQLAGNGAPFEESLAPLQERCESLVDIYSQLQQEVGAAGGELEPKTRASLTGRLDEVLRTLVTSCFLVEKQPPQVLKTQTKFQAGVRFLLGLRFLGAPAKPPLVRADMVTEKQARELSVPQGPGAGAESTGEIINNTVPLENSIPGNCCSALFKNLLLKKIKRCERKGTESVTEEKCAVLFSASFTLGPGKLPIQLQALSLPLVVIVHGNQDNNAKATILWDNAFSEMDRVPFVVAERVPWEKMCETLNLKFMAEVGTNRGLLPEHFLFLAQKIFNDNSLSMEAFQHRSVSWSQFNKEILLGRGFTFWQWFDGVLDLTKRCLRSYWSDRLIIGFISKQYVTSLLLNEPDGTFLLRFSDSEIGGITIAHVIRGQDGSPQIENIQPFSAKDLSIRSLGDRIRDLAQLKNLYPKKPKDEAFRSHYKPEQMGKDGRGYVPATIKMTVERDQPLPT

Legend:
[1] = biological target: Recombinant STAT3 protein (STAT3 (G127-I722)) (Homo sapiens, UniProt P40763); test: STAT3 Fluorescence Polarization (FP) Assay; details: probe 5-FAM-GpYLPQTV-NH2 2 nM, 45-minute incubation
[2] = biological target: Recombinant STAT6 protein (STAT6 (W123-T658)) (Homo sapiens, UniProt P42226); test: STAT6 Fluorescence Polarization (FP) Assay; details: probe 5-FAM-ApYKPFQDLI-NH2 2 nM, 45-minute incubation
[3] = read-out: STAT3 (FP assay IC50 class), STAT3 (G127-I722) 25 nM
[4] = read-out: STAT6 (FP assay IC50 class), STAT6 (W123-T658) 250 nM
[5] = read-out: STAT3 (FP assay IC50), STAT3 25 nM
[6] = read-out: STAT6 (FP assay IC50), STAT6 250 nM

SMILES	IC50 [1, 3] [nM]	IC50 [2, 4] [nM]	IC50 [1, 5] [nM]	IC50 [2, 6] [nM]
N#Cc1ccncc1C1CN(C(=O)[C@@H]2CC[C@@H]3CCC[C@H](NC(=O)c4cc5cc(C(F)P(=O)(O)O)ccc5s4)C(=O)N32)C1 (stereo partly shown)	1000 to 10000	3000 to 30000	–	–
Cn1cnnc1C1(F)CN(C(=O)[C@@H]2CC[C@@H]3CCC[C@H](NC(=O)c4cc5cc(C(F)(F)P(=O)(O)O)ccc5s4)C(=O)N32)C1	100 to 1000	300 to 3000	–	–
CC1C[C@H]2CC[C@@H](C(=O)N3CC(c4cccnc4)C3)N2C(=O)[C@@H](NC(=O)c2cc3cc(C(F)(F)P(=O)(O)O)ccc3s2)C1 (single isomer, unassigned)	–	–	< 100	3000 to 30000
COC1CN(c2ccncc2C2CN(C(=O)[C@@H]3CC[C@@H]4CCC[C@H](NC(=O)c5cc6cc([C@H](F)P(=O)(O)O)ccc6s5)C(=O)N43)C2)C1	< 100	300 to 3000	–	–
COCCOC1(c2cccnc2)CN(C(=O)[C@@H]2CC[C@@H]3CCCC[C@H](NC(=O)c4cc5cc(C(F)P(=O)(O)O)ccc5s4)C(=O)N32)C1 (stereo partly shown)	< 100	3000 to 30000	–	–
Cn1ccc(C2CCN(C(=O)[C@@H]3CC[C@@H]4CCCC[C@H](NC(=O)c5cc6cc(C(F)P(=O)(O)O)ccc6s5)C(=O)N43)C2)cc1=O (stereo partly shown)	100 to 1000	300 to 3000	–	–
C/C1=C/C[C@H](NC(=O)c2ccc3ccc(CP(=O)(O)O)cc3c2)C(=O)N2[C@H](CC[C@H]2C(=O)N2CC(c3ccccc3)CC23CC3)C1 (stereo partly shown)	1000 to 10000	300 to 3000	–	–
N#CC1CN(C(=O)[C@@H]2CC[C@@H]3CCCC[C@H](NC(=O)c4ccc5ccc(C(F)(F)P(=O)(O)O)cc5c4)C(=O)N32)CC12C(=O)Nc1ccccc12 (single isomer, unassigned)	–	–	< 100	< 300
COc1nccc(F)c1C1CN(C(=O)[C@@H]2CC[C@@H]3CCC[C@H](NC(=O)c4cc5cc(CP(=O)(O)O)ccc5s4)C(=O)N32)C1	1000 to 10000	3000 to 30000	–	–
O=C(N[C@H]1CCCC[C@H]2CC[C@@H](C(=O)N3CCc4cn[nH]c4C3)N2C1=O)c1cc2cc(C(F)(F)P(=O)(O)O)ccc2s1	1000 to 10000	300 to 3000	–	–
O=C(N[C@H]1CCC[C@H]2CC[C@@H](C(=O)N3CC(c4cnccc4N4CC5CC(C4)O5)C3)N2C1=O)c1cc2cc(C(F)P(=O)(O)O)ccc2s1 (stereo partly shown)	< 100	3000 to 30000	–	–
